Patent US6521659B2, “Compositions containing a substituted indolealkanoic acid and an angiotensin converting enzyme inhibitor” (Institute for Pharmaceutical Discovery, LLC, priority 2000, dated 2003)

Columns and labels:
[1] = molecular target: human aldose reductase (hALR2) (Homo sapiens, UniProt P15121); experiment: Inhibition of human aldose reductase (hALR2), methods similar to Butera et al.; type: biochemical; details: ratio of hALR1 IC50 to hALR2 IC50 (selectivity)
Protocol: Representative compounds of Formula Iwere tested for their potency, selectivity and efficacy as inhibitors of human aldose reductase.
(§1) Since high potency of test compounds as inhibitors of aldose reductase is desirable, low hALR2 IC50 values are sought. On the other hand, high potency of test compounds as inhibitors of aldehyde reductase is undesirable, and high ALR1 IC50s values are sought. Accordingly, the hALR1/hALR2 ratio is used to determine the selectivity of the test compounds. The importance of this selectivity is Described in Kotani, et al., J. Med. Chem. 40: 684, 1997.

[2] = molecular target: T1, human aldehyde reductase (hALR1) (Homo sapiens, UniProt P14550); experiment: Inhibition of human aldehyde reductase (hALR1), methods of Ishii et al.; type: biochemical
T1 sequence (P14550 1-325): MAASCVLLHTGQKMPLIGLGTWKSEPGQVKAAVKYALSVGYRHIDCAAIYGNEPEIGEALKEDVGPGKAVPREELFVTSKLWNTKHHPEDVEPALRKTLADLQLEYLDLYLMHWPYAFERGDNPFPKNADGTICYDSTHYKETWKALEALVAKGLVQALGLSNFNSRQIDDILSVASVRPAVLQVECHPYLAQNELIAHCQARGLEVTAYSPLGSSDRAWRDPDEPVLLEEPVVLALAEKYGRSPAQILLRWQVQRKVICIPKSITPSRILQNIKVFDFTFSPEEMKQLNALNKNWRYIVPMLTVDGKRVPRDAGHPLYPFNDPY
Protocol: In a second assay, a number of the same compounds were tested for their ability to inhibit aldehyde reductase (hALR1), a structurally related enzyme.
as §1, with “compounds.” for “compounds. The importance of this selectivity is Described in Kotani, et al., J. Med. Chem. 40: 684, 1997.”

Structure (SMILES) | HALR1/hALR2 [1] | IC50 [2] [µM]
Cc1c(Cc2nc3c(F)c(F)cc(F)c3s2)c2ccccc2n1CC(=O)O [Example 1, 2-methyl-3-(4,5,7-trifluorobenzothiazol-2-yl)methyl-indole-N-acetic Acid] | 1,200 | 13
O=C(O)Cn1cc(Cc2nc3c(F)c(F)cc(F)c3s2)c2cc(Cl)ccc21 [Example 2, 5-chloro-3-(4,5,7-Trifluorobenzothiazol-2-yl)methyl-indole-N-acetic Acid] | 1,100 | 11
Cc1ccc2c(c1)c(Cc1nc3c(F)c(F)cc(F)c3s1)cn2CC(=O)O [Example 4, 5-methyl-3-(4,5,7-trifluorobenzothiazol-2-yl)methyl-indole-N-acetic Acid] | 4,250 | 34
Cc1cccc2c(Cc3nc4c(F)c(F)cc(F)c4s3)cn(CC(=O)O)c12 [Example 5, 7-methyl-3-(4,5,7-trifluorobenzothiazol-2-yl)methyl-indole-N-acetic Acid] | 3,500 | 21
O=C(O)Cn1cc(Cc2nc3c(F)c(F)cc(F)c3s2)c2ccc(Cl)cc21 [Example 6, 6-chloro-3-(4,5,7-trifluorobenzothiazol-2-yl)methyl-indole-N-acetic Acid] | 340 | 2.7
O=C(O)Cn1cc(Cc2nc3c(F)c(F)cc(F)c3s2)c2cc(OCc3ccccc3)ccc21 [Example 7, 5-benzyloxy-3-(4,5,7-trifluorobenzothiazol-2-yl)methyl-indole-N-acetic Acid] | 400 | 4.8
O=C(O)Cn1cc(Cc2nc3c(F)c(F)cc(F)c3s2)c2ccc(F)cc21 [Example 8, 6-fluoro-3-(4,5,7-trifluorobenzothiazol-2-yl)methyl-indole-N-acetic Acid] | 1,100 | 7.5
O=C(O)Cn1cc(Cc2nc3c(F)c(F)cc(F)c3s2)c2cc(F)ccc21 [Example 9, 5-fluoro-3-(4,5,7-trifluorobenzothiazol-2-yl)methyl-indole-N-acetic Acid] | 1,900 | 21
Cc1ccc2c(Cc3nc4c(F)c(F)cc(F)c4s3)cn(CC(=O)O)c2c1 [Example 10, 6-methyl-3-(4,5,7-trifluorobenzothiazol-2-yl)methyl-indole-N-acetic Acid] | 2,600 | 13
O=C(O)Cn1cc(Cc2nc3cc(C(F)(F)F)ccc3s2)c2ccccc21 [Example 11, 3-(5-trifluoromethylbenzothiazol-2-yl)methyl-indole-N-acetic Acid] | 57 | 5.6
O=C(O)Cn1c(-c2ccccc2)c(Cc2nc3c(F)c(F)cc(F)c3s2)c2ccccc21 [Example 14, 2-phenyl-3-(4,5,7-trifluorobenzothiazol-2-yl)methyl-indole-N-acetic Acid] | 160 | 16
O=C(O)Cn1cc(Cc2nc3c(F)c(F)cc(F)c3s2)c2cc(-c3ccccc3)ccc21 [Example 15, 5-phenyl-3-(4,5,7-trifluorobenzothiazol-2-yl)methyl-indole-N-acetic acid] | 190 | 10
O=C(O)Cn1cc(Cc2nc3c(F)c(F)cc(F)c3s2)c2cc(N3CCOCC3)ccc21 [Example 17, 5-morpholino-3-(4,5.7-trifluorobenzothiazol-2-yl)methyl-indole-N-acetic Acid] | 5,100 | 41
O=C(O)Cn1cc(Cc2nc3c(F)c(F)cc(F)c3s2)c2cc(Oc3ccccc3)ccc21 [Example 19, 5-phenoxy-3-(4,5,7-trifluorobenzothiazol-2-yl)methyl-indole-N-acetic Acid] | 370 | 11
O=C(O)Cn1cc(Cc2nc3c(F)c(F)cc(F)c3s2)c2cccc(F)c21 [Example 20, 7-fluoro-3-(4,5,7-trifluorobenzothiazol-2-yl)methyl-indole-N-acetic Acid] | 1,000 | 7
O=C(O)Cn1cc(Cc2nc3c(F)c(F)cc(F)c3s2)c2cccc(Br)c21 [Example 21, 7-bromo-3-(4,5,7-trifluorobenzothiazol-2-yl)methyl-indole-N-acetic Acid] | 1,300 | 18
O=C(O)Cn1cc(Cc2nc3c(F)c(F)cc(F)c3s2)c2cccc(Cl)c21 [Example 22, 7-chloro-3-(4,5,7-trifluorobenzothiazol-2-yl)methyl-indole-N-acetic Acid] | 2,100 | 19
CC(C(=O)O)n1cc(Cc2nc3c(F)c(F)cc(F)c3s2)c2ccccc21 (stereo not drawn) [Example 25, 3-(4.5,7-trifluorobenzothiazol-2-yl)methyl-indole-N-2-propionic Acid] | 41 | 6.5
O=C(O)CCn1cc(Cc2nc3c(F)c(F)cc(F)c3s2)c2ccccc21 [Example 26, 3-(4-5.7-trifluorobenzothiazol-2-yl)methyl-indole-N-3-propionic Acid] | 5,200 | 88
COc1ccc2c(Cc3nc4c(F)c(F)cc(F)c4s3)cn(CC(=O)O)c2c1 [Example 28, 6-Methoxy-3-(4,5,7-trifluorobenzothiazol-2-yl)methyl-indole-N-acetic acid] | 2,400 | 12
O=C(O)Cn1cc(Cc2nc3c(F)c(F)cc(F)c3s2)c2c(Cl)cccc21 [Example 29, 4-Chloro-3-(4,5,7-trifluorobenzothiazol-2yl) methyl-indole-N-acetic Acid] | – | 14
COc1ccc2c(c1)c(Cc1nc3c(F)c(F)cc(F)c3s1)cn2CC(=O)O [Example 30, 5-Methoxy-3-(4,5,7-trifluorobenzothiazol-2-yl) methyl-indole-N-acetic Acid] | – | 21
